Yeast mating assay 2: variants of the scFv Ab-91

The target is the same throughout: PDVDLGDISGINAS, from the HR2 region of SARS-CoV-2 spike.

Parent: Ab-91, a human scFv built as VL, three GGGGS repeats, VH. Only the CDRs of the heavy chain vary.
VL: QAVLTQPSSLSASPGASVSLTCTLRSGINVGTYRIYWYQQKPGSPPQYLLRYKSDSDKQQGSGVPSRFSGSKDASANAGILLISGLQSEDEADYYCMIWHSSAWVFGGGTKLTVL
VH: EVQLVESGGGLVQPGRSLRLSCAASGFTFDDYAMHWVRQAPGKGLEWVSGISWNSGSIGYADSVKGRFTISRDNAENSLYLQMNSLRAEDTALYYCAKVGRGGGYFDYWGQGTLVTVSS

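The parent was found by panning a naive human phage display library on the peptide. In library AAYL51, one, two or three CDR residues were substituted; doubles and triples were drawn at random. The assay is AlphaSeq: two haploid yeast populations carry antibody and antigen on their surface. After mating in shaken culture at 30 °C for 16 h, diploids were selected and their barcode pairs sequenced. The ratio of observed to expected reads was calibrated, replicate by replicate, on BCL2-family standards whose Kd was known from biolayer interferometry. There are three technical replicates.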

Changes read parent residue, position, new residue, counted from the first residue of the VH shown.
Scale: log10 of Kd in nM, estimated from mating counts; low values are strong binders.
Where no diploid with the target was found in that replicate, the entry reads "nd": below detection, most likely a poor binder, though not proof of it.
In this assay the parent's reference entry averaged 1.86; its copy inside this library read 0.88.

changes	replicates, log10 nM	control signals
G50N+I51H+K65M	nd / nd / nd	0/9
D30Y+S57N+S63Q	1.91 / 1.80 / 2.71	1/9 (4.06)
D30C+S57K+Y108V	nd / nd / 4.64	1/9 (4.21)
N54M+Y105P+F106Q	nd / nd / nd	0/9
D30N+Y60I+S63G	2.23 / 2.30 / 2.77	1/9 (2.64)
F27C+D31S	5.13 / 5.42 / nd	2/9 (4.83)
F27W+V64D+G100K	nd / nd / 4.40	0/9
G50H+S55G+V64D	3.93 / nd / nd	2/9 (4.52)
S63F+G100Y+F106V	5.05 / nd / nd	1/9 (5.10)
A33S+Y60K+S63E	nd / nd / nd	0/9
F27V+A33T+G50W	nd / 5.64 / nd	4/9 (4.53)
Y32P+V64G+G102Q	nd / 5.06 / 4.44	2/9 (5.08)
Y32N+S57Q+G59M	nd / nd / nd	0/9
G26E+Y60R+F106Y	nd / nd / nd	1/9 (3.11)
S52P+Y60H+V99D	nd / nd / nd	0/9
R101L+G102A+D107V	0.85 / 0.56 / 0.27	0/9
N54V+I58T+D62R	3.43 / 3.74 / 2.98	3/9 (4.70)
Y60Q+R101T+D107C	nd / nd / nd	1/9 (4.15)
T28E+D31E+S52M	3.77 / 4.63 / 3.96	5/9 (4.05)
F29Y+D62P+F106R	5.38 / 5.55 / 4.44	7/9 (5.33)
G59C+V64H+K65W	nd / nd / nd	0/9
M34P	nd / nd / nd	2/9 (4.70)
T28G+S52Y+R101L	4.29 / 4.05 / nd	4/9 (4.38)
A33H+I51E+G103M	5.02 / nd / nd	3/9 (4.79)
G26W+D62I+K65A	nd / nd / nd	2/9 (3.88)
H35R+S52Y+I58Q	nd / 3.58 / nd	2/9 (4.39)
T28S+A61T+D62I	nd / nd / nd	0/9
A61C+K65A+G104K	4.70 / 5.07 / nd	5/9 (4.72)
Y32H+I51Q+G100C	4.60 / 4.73 / 5.74	3/9 (4.60)
D31T+D62K+V99M	4.16 / 6.04 / nd	3/9 (4.93)
G26I+K65F+G102K	3.75 / nd / nd	1/9 (3.61)
G26I+A33G+G103D	2.94 / 2.95 / 3.12	4/9 (4.58)
M34V+N54W+G100D	nd / nd / 4.69	0/9
S57K+G102W+Y105P	4.45 / 4.96 / 5.83	7/9 (4.96)
D30W+W53Q+D62P	nd / nd / 4.54	0/9
G26E+S57F+G59P	5.71 / 5.19 / 4.30	5/9 (4.42)
I58T+F106E+D107I	3.46 / 2.22 / 2.68	1/9 (4.56)
W53A+V64D+K65G	1.74 / 2.05 / 3.44	1/9 (3.82)
D31S+H35Y+I58L	nd / nd / nd	0/9
H35L+G56Q+D62V	nd / nd / nd	0/9

As a blank, each scFv also met three strains without target: over library AAYL51, 21% of these pairings were detected, typically at 4.54 and seldom below 3.26. The control count says in how many pairings with the empty strains this scFv gave a signal, with their mean in brackets.

From the AlphaSeq antibody data of Engelhart et al. 2022 (doi:10.1038/s41597-022-01779-4), copy in the FLAb collection.